Experimental data from PMC5864910, “Mutacin 1140 Lantibiotic Variants Are Efficacious Against Clostridium difficile Infection” (Frontiers in Microbiology, 2018).

By UniProt entry, the sequences of proteins in these tests, tags left out. Where a name states a change or a piece, a line headed by the entry shows the natural chain unless it says otherwise. Residues count along the entry.
UniProt Q01959, whole entry: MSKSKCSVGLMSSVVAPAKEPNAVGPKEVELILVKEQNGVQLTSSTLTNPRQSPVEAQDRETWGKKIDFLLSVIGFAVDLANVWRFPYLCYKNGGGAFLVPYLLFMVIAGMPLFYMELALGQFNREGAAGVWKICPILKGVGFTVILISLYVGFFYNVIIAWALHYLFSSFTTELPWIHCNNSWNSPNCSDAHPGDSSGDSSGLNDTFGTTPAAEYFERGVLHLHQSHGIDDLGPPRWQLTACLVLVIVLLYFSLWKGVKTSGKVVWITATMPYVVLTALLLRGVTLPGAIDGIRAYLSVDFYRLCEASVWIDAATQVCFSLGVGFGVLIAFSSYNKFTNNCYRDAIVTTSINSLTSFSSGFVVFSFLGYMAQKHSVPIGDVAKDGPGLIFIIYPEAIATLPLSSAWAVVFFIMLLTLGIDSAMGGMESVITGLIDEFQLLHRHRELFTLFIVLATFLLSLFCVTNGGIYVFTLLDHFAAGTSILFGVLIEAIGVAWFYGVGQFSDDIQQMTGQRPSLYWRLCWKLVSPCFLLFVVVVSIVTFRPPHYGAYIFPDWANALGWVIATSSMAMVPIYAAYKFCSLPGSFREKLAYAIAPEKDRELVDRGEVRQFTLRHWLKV
UniProt P37288, whole entry: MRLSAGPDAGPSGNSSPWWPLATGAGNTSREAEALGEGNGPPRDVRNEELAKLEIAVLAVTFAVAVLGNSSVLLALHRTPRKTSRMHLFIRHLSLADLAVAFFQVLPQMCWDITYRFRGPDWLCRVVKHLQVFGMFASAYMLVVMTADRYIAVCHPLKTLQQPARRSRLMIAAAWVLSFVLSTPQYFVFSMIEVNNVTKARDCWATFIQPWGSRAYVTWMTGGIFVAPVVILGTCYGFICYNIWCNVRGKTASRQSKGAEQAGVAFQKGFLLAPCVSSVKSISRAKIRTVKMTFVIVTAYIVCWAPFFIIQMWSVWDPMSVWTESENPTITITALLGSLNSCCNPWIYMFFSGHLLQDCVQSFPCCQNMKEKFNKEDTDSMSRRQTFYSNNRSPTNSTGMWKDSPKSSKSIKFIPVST
UniProt P41595, whole entry: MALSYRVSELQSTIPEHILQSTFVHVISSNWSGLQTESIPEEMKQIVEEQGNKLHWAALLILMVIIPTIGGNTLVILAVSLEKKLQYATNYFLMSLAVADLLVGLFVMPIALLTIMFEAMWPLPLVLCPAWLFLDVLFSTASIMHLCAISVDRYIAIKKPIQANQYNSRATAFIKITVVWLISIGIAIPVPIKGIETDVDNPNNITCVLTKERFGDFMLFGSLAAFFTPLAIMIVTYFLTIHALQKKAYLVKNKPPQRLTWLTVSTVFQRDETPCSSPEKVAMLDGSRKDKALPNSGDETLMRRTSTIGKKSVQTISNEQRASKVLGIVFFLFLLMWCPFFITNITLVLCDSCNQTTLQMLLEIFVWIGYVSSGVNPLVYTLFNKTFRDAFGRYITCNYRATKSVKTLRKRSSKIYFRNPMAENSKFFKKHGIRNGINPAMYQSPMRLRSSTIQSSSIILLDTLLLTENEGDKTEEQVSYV
UniProt Q08499, 303-809 limits assumed: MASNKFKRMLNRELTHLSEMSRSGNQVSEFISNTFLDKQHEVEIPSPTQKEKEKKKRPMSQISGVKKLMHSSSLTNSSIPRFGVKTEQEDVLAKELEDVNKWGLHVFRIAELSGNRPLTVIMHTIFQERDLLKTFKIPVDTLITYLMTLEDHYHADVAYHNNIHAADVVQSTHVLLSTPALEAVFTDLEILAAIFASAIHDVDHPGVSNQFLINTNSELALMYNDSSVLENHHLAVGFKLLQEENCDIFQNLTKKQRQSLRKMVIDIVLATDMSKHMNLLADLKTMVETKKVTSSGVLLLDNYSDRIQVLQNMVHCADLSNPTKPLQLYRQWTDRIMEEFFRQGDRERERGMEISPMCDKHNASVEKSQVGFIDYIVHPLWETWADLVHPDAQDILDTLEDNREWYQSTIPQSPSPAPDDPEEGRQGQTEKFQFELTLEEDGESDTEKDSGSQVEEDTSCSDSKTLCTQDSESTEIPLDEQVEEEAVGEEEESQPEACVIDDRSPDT
UniProt Q12809: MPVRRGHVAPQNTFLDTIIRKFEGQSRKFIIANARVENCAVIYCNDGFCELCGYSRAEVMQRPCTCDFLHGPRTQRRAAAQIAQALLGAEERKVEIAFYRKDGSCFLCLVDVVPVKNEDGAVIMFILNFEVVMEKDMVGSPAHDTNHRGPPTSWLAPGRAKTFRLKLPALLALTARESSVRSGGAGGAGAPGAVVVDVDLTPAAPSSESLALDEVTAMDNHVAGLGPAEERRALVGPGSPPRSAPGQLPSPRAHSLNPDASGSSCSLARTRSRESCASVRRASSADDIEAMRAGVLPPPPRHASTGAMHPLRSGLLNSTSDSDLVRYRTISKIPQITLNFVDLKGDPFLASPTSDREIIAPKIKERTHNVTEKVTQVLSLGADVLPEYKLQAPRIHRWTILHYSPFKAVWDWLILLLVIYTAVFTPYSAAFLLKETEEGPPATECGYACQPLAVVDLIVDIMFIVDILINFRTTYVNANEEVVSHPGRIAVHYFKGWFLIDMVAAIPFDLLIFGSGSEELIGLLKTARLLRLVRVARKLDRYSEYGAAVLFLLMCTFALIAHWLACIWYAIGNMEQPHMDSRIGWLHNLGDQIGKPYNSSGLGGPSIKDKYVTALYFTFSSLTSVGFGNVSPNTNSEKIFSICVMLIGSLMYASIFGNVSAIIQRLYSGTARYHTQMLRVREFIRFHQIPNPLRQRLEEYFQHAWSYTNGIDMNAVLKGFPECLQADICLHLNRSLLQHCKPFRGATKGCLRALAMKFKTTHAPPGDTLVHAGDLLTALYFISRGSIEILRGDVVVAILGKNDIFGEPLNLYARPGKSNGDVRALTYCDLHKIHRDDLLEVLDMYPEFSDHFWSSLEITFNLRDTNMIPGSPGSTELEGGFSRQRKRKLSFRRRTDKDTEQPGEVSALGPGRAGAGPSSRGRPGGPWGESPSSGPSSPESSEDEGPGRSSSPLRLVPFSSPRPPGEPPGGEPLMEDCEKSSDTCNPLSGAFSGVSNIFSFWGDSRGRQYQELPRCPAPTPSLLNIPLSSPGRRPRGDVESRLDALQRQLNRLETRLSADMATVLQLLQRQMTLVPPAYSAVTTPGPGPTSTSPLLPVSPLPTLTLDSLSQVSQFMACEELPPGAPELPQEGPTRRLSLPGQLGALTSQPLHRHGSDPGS
UniProt P20309, whole entry: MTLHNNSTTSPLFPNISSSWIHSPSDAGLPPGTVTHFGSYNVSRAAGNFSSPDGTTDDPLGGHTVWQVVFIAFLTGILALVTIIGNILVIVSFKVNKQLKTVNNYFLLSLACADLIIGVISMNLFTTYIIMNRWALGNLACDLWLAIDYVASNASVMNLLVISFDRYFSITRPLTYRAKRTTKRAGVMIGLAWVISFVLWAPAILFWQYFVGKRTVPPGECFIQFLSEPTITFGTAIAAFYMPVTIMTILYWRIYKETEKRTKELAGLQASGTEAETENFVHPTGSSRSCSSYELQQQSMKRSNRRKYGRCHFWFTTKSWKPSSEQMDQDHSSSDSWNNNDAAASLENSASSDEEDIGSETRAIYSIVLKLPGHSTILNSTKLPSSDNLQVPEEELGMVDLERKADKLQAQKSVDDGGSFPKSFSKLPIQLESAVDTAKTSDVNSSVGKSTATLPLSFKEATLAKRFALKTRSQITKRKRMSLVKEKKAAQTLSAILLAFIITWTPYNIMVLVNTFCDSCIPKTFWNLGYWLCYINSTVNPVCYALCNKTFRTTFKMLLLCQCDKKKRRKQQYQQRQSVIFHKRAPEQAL
UniProt P35367, whole entry: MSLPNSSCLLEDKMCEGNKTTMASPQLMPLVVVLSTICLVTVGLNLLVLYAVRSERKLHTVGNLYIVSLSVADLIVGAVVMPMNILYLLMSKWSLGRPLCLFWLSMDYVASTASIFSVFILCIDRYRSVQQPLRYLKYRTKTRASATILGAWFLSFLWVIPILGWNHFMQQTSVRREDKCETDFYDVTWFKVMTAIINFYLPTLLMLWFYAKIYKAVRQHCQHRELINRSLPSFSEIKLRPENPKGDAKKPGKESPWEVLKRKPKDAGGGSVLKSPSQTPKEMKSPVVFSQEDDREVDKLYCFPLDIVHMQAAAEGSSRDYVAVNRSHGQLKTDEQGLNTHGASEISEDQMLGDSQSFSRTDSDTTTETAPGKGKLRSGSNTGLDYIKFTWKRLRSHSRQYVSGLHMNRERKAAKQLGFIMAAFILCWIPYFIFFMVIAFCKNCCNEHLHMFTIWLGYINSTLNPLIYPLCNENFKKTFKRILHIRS
UniProt P34972, whole entry: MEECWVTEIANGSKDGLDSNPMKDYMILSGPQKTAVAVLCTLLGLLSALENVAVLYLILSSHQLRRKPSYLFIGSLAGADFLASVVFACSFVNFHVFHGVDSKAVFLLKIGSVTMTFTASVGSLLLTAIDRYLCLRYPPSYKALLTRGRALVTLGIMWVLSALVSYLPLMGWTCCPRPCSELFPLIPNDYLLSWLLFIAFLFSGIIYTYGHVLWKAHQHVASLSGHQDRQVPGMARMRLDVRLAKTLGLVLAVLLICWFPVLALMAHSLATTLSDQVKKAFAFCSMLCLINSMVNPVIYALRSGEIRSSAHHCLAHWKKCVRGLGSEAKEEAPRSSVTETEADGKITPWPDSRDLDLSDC
UniProt P06239: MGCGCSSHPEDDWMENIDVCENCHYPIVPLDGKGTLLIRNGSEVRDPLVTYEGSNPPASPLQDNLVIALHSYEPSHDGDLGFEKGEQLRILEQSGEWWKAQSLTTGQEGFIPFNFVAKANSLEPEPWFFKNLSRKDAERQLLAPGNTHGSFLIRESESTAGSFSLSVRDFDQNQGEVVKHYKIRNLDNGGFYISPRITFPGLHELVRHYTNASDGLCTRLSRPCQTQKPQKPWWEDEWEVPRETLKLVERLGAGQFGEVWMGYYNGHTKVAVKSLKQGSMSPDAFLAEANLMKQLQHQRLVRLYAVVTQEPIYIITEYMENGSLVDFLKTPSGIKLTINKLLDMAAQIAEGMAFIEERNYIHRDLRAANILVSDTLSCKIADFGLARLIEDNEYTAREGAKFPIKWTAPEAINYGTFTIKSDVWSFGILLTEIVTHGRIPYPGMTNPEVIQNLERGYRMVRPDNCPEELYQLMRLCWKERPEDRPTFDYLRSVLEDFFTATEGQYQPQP
UniProt P17787, 26-502: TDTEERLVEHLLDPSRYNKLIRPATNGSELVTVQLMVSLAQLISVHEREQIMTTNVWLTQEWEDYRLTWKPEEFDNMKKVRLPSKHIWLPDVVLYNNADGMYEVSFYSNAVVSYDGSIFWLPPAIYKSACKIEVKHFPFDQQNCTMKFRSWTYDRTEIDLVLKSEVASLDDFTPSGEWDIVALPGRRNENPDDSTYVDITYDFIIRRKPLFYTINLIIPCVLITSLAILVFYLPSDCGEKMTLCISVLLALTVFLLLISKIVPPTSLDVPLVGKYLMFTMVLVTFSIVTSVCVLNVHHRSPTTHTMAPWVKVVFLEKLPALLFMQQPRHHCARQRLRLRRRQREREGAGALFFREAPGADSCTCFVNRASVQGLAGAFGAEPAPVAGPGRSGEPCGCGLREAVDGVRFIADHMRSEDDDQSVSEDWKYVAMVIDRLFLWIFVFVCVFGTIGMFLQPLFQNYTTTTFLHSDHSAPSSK
UniProt P43681, 29-627 limits assumed: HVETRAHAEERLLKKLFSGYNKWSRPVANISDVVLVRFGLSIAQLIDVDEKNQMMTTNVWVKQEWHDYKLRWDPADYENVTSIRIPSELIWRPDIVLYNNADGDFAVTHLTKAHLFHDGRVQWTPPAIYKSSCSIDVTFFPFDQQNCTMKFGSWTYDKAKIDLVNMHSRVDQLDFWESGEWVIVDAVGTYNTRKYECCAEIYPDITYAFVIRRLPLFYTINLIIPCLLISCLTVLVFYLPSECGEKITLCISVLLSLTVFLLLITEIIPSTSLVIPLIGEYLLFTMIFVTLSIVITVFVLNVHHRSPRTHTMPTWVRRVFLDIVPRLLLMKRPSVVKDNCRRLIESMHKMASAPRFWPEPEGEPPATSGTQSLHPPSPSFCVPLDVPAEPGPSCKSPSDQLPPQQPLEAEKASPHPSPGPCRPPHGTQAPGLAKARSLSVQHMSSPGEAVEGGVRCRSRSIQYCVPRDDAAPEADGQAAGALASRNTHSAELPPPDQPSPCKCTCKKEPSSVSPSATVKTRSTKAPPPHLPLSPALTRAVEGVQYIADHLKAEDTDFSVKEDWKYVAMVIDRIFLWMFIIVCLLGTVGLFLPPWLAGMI
UniProt P25021, whole entry: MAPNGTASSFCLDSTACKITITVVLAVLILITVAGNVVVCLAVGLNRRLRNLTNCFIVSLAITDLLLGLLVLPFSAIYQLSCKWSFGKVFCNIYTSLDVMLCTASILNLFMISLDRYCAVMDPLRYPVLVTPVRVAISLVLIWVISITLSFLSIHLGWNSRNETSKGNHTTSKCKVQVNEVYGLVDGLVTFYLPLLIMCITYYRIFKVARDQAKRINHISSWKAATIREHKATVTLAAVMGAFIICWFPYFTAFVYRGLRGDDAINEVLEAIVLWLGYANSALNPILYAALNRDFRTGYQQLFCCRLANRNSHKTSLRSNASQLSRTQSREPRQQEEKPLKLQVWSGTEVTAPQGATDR

Experiments:
Dopamine = Dopamine (Homo sapiens, UniProt Q01959)
ACHE = ACHE (Homo sapiens, UniProt P22303)
V1a = V1a (Homo sapiens, UniProt P37288)
alpha1A = target: T1, alpha1A (Homo sapiens, UniProt P35348)
T1 sequence (P35348 1-466): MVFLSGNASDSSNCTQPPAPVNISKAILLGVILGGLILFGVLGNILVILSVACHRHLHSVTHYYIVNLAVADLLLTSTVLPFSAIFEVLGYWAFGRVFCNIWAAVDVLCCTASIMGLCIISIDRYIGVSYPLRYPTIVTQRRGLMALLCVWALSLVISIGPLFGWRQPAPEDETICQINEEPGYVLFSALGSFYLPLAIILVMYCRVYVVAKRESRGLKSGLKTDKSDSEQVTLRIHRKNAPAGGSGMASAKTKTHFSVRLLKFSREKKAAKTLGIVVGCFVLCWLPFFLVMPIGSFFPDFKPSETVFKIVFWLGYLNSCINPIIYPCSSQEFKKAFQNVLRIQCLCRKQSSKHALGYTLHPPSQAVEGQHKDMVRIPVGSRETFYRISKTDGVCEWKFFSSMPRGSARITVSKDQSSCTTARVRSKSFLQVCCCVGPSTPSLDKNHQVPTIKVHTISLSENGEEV

5-HT (2B) = 5-HT (2B) (Homo sapiens, UniProt P41595)
PDE4D2 = PDE4D2 (Homo sapiens, UniProt Q08499)
hERG = hERG (Homo sapiens, UniProt Q12809)
M3 = M3 (Homo sapiens, UniProt P20309)
H1 = H1 (Homo sapiens, UniProt P35367)
CB2 = CB2 (Homo sapiens, UniProt P34972)
kinase (CTK) = kinase (CTK) (Homo sapiens, UniProt P06239)
cyclooxygenase Cox-1 = cyclooxygenase Cox-1 (Homo sapiens, UniProt P23219)
5-HT (2A) = 5-HT (2A) (Homo sapiens, UniProt P28223)
N- neuronal a4b2 = N- neuronal a4b2 (Homo sapiens, UniProt P17787+P43681)
H2 = H2 (Homo sapiens, UniProt P25021)
NT = NT (Homo sapiens, UniProt P23975)
D1 = D1 (Homo sapiens, UniProt P21728)
Beta2 = Beta2 (Homo sapiens, UniProt P07550)
GR = target: T2, GR (Homo sapiens, UniProt P04150)
T2 sequence (P04150 1-777): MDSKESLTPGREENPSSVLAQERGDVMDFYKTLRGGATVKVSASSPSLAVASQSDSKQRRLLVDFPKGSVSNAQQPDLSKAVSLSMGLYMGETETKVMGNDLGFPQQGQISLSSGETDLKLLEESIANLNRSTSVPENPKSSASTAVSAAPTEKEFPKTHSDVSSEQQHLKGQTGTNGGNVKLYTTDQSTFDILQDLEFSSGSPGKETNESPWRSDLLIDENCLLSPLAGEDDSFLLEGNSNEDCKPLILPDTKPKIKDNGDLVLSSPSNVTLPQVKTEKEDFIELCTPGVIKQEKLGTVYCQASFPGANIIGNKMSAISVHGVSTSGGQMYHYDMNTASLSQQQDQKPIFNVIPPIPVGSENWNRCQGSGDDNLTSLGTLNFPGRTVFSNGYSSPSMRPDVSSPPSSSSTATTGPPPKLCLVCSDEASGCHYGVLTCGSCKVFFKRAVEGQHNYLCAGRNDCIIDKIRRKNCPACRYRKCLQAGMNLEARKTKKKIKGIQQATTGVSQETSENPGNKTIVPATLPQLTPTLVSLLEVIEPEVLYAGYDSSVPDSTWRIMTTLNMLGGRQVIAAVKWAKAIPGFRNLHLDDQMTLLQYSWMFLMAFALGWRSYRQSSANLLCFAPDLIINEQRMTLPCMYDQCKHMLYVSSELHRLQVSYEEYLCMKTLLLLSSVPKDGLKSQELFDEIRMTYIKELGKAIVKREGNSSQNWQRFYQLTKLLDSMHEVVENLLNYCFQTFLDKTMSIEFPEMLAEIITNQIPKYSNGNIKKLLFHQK

CB1 = CB1 (Homo sapiens, UniProt P21554)
Mu (MOP) = Mu (MOP) (Homo sapiens, UniProt P35372)
delta2 DOP = delta2 DOP (Homo sapiens, UniProt P41143)

Compound | Cerep SafetyScreen 44 % Inhibition Dopamine (Dopamine) [%] | Cerep SafetyScreen 44 % Inhibition ACHE (ACHE) [%] | Cerep SafetyScreen 44 % Inhibition V1a (V1a) [%] | Cerep SafetyScreen 44 % Inhibition alpha1A (alpha1A) [%] | Cerep SafetyScreen 44 % Inhibition 5-HT (2B) (5-HT (2B)) [%] | Cerep SafetyScreen 44 % Inhibition PDE4D2 (PDE4D2) [%] | Cerep SafetyScreen 44 % Inhibition hERG (hERG) [%] | Cerep SafetyScreen 44 % Inhibition M3 (M3) [%] | Cerep SafetyScreen 44 % Inhibition H1 (H1) [%] | Cerep SafetyScreen 44 % Inhibition CB2 (CB2) [%] | Cerep SafetyScreen 44 % Inhibition Lck Kinase (kinase (CTK)) [%] | Cerep SafetyScreen 44 % Inhibition COX1 Enzyme (cyclooxygenase Cox-1) [%] | Cerep SafetyScreen 44 % Inhibition 5-HT (2A) (5-HT (2A)) [%] | Cerep SafetyScreen 44 % Inhibition N- neuronal a4b2 (N- neuronal a4b2) [%] | Cerep SafetyScreen 44 % Inhibition H2 (H2) [%] | Cerep SafetyScreen 44 % Inhibition NT (NT) [%] | Cerep SafetyScreen 44 % Inhibition D1 (D1) [%] | Cerep SafetyScreen 44 % Inhibition Beta2 (Beta2) [%] | Cerep SafetyScreen 44 % Inhibition GR (GR) [%] | Cerep SafetyScreen 44 % Inhibition delta2 (DOP) (delta2 DOP) [%] | further results
C=C1NC(=O)[C@H](Cc2c[nH]c3ccccc23)NC(=O)[C@H](NC(=O)[C@H](CCCCN)NC(=O)[C@@H](N)Cc2ccccc2)CSC[C@@H](C(=O)N[C@H]2C(=O)N3CCC[C@H]3C(=O)NCC(=O)N[C@H](C(=O)N[C@@H](C)C(=O)N[C@@H](CCCNC(=N)N)C(=O)N/C(=C\C)C(=O)NCC(=O)N[C@@H]3CSC[C@@H]4NC(=O)[C@H](Cc5ccc(O)cc5)NC(=O)[C@@H](CS/C=C\NC4=O)NC(=O)[C@H](CC(N)=O)NC(=O)[C@H](Cc4ccc(O)cc4)NC3=O)CS[C@H]2C)NC(=O)[C@H](CC(C)C)NC1=O [F17Y] | 10 | -4 | 18 | -5 | -20 | 4 | 9 | 3 | -5 | 1 | 9 | -23 | 2 | 0 | 4 | 12 | 5 | 4 | -3 | 54 | Cerep SafetyScreen 44 % Inhibition CB1 (CB1): -1%; Cerep SafetyScreen 44 % Inhibition Mu (MOP) (Mu (MOP)): 13%
C=C1NC(=O)[C@H](Cc2c[nH]c3ccccc23)NC(=O)[C@H](NC(=O)[C@H](CCCCN)NC(=O)[C@@H](N)Cc2ccccc2)CSC[C@@H](C(=O)N[C@H]2C(=O)N3CCC[C@H]3C(=O)NCC(=O)N[C@H](C(=O)N[C@@H](C)C(=O)N[C@@H](CCCNC(=N)N)C(=O)N/C(=C\C)C(=O)NCC(=O)N[C@@H]3CSC[C@@H]4NC(=O)[C@H](Cc5ccc(O)cc5)NC(=O)[C@@H](CS/C=C\NC4=O)NC(=O)[C@H](CC(N)=O)NC(=O)[C@H](Cc4ccccc4)NC3=O)CS[C@H]2C)NC(=O)[C@H](C)NC1=O [L6A] | – | – | – | – | – | – | 7 | – | – | – | 12 | -15 | – | – | – | – | – | – | – | 14 | –
C=C1NC(=O)[C@H](Cc2c[nH]c3ccccc23)NC(=O)[C@H](NC(=O)[C@H](CCCCN)NC(=O)[C@@H](N)Cc2ccccc2)CSC[C@@H](C(=O)N[C@H]2C(=O)N3CCC[C@H]3C(=O)NCC(=O)N[C@H](C(=O)N[C@@H](C)C(=O)N[C@@H](C)C(=O)N/C(=C\C)C(=O)NCC(=O)N[C@@H]3CSC[C@@H]4NC(=O)[C@H](Cc5ccc(O)cc5)NC(=O)[C@@H](CS/C=C\NC4=O)NC(=O)[C@H](CC(N)=O)NC(=O)[C@H](Cc4ccccc4)NC3=O)CS[C@H]2C)NC(=O)[C@H](CC(C)C)NC1=O [R13A] | 1 | -15 | 9 | 3 | -37 | 3 | 16 | 6 | -17 | 5 | -3 | 18 | -9 | -6 | -1 | 3 | -2 | 2 | -11 | 9 | Cerep SafetyScreen 44 % Inhibition CB1 (CB1): 9%; Cerep SafetyScreen 44 % Inhibition Mu (MOP) (Mu (MOP)): 7%
